In one assay the target is Carbonic anhydrase 9 (Homo sapiens, UniProt Q16790).
Another assay deals with Carbonic anhydrase 12 (Homo sapiens, UniProt O43570).

This passage reports Ki results from ChEMBL document CHEMBL3758094, “Thioxocoumarins Show an Alternative Carbonic Anhydrase Inhibition Mechanism Compared to Coumarins” (J Med Chem, 2016).

Each structure is given as a SMILES string. pKi: −log10 of the molar value. A value given as a limit tells only on which side of the number the result lay.

The term pKi denotes the negative decadic logarithm of the Ki, by convention in mol/L. Read a high pKi as a low Ki.

For the molecule `O=c1ccc2ccccc2o1` [COUMARIN], the pKi on Carbonic anhydrase 9 and on Carbonic anhydrase 12 was < 4.00 throughout.
